Values of other authors in article PMC13626057, “Sensitizing tumor response to topoisomerase I antibody-drug conjugate by selective CDK7 inhibition” (Science Advances, 2026).

Test system: HER2-positive metastatic breast cancer
Settings: patients previously treated with multiple lines of HER2-targeted therapies; cited from earlier work

Trastuzumab deruxtecan [T-DXd]
median progression-free survival (PFS): 16.4 months | objective response rate (ORR): 60.9%
